Assay results: patent US20040197335A1, “Non-myeloablative tolerogenic treatment with tyrphostins” (priority 2003, published 2004)

System: Mice with donor skin graft
Test: Skin grafting after tolerogenic treatment (TLI, donor bone marrow cells, tyrphostin, cyclophosphamide)
Assay type: in vivo
Conditions: s.c., 300 mg in 30 μl per injection

For COc1ccc(C=C(C#N)C#N)cc1, which “Survivors after 50 days (%)” value is on record?
Its value is “(30%)”.

And the “Survivors after 100 days (%)” value?
Its value is “(30%)”.

What about the “Survivors after 50 days” value (survivors/total) of the same compound?
Its value is 2/6.

What about the “Survivors after 100 days” value (survivors/total) of the same compound?
Its value is 2/6.
